Consider two compounds from patent US8258305B2, “Dopamine transporter inhibitors for use in treatment of movement disorders and other CNS indications” (Prexa Pharmaceuticals, Inc., priority 2005, dated 2012).

The chains behind the UniProt entries cited, without tags or fusion partners.
UniProt P23977, whole entry: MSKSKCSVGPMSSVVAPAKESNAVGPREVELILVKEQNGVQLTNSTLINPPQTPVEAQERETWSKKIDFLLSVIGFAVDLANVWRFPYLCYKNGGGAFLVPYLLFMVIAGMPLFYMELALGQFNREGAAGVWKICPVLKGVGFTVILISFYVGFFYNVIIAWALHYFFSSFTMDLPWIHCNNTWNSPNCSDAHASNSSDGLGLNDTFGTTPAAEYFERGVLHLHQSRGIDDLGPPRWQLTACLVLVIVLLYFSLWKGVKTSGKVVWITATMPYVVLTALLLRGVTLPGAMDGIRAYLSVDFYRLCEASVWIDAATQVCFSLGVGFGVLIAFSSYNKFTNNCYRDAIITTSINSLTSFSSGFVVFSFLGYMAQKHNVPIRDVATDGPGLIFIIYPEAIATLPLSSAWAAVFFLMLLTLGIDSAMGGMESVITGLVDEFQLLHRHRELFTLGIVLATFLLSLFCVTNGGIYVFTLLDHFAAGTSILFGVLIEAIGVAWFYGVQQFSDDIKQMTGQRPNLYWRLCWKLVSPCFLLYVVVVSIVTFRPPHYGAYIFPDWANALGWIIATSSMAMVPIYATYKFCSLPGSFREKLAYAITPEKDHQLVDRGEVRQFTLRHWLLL
UniProt P31652, whole entry: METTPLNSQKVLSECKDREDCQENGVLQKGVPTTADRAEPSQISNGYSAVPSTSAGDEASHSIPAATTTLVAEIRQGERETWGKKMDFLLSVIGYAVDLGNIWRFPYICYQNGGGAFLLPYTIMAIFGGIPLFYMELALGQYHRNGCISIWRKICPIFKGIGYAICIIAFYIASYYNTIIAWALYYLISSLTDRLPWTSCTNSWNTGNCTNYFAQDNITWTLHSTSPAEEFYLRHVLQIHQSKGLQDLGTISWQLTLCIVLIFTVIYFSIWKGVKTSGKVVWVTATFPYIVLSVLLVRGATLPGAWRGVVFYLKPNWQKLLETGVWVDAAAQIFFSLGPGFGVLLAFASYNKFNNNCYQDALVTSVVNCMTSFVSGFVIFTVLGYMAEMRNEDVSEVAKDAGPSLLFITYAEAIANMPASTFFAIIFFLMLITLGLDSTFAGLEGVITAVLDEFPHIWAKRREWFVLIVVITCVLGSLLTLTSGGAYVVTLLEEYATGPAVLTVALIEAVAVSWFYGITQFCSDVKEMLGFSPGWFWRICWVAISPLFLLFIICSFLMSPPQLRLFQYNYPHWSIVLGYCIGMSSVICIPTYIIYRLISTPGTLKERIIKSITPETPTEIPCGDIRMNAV

Test [1] concerns the target DAT (Rattus norvegicus, UniProt P23977). The experiment in a line: Functional uptake profile, rat DAT. The class given is cell-based.
The target in test [2] is 5-HT (Rattus norvegicus, UniProt P31652). The test is described as follows: Functional uptake profile, rat 5-HT. The format is cell-based.

For `CC(C)C[C@@H](N)C1(c2ccc(Cl)cc2)CCC1` [R-DDMS], the EC50 stood at 100 nM in test [1] and 1500 nM in test [2].
For the compound `CN[C@H](CC(C)C)C1(c2ccc(Cl)cc2)CCC1` [R-DMS], the figures for the EC50 in test [1] and in test [2] were 70 nM and 1500 nM, respectively.

In general, EC50 refers to the concentration needed to bring the measured effect to its halfway point. Read a low EC50 as an effect from little substance.
